These are literature values, as cited in patent US9682040B2, “Phospholipid depot” (priority 2010, dated 2017).

The conditions of the data set: published (Reeves 1980).

For the substance gentamicin, the “plasma concentrations to which gentamicin toxicity (renal and ototoxicity) is related” value is reported as “greater than 10 mg/L”.
